Measurements taken from PubChem BioAssay (Tox21).
Values joined by “and” are separate entries in the source; they are usually repeats but may differ in a detail not shown here. Equal entries are not always repeated. This is a selection; strong and weak results do not stand in their true shares. Inconclusive results are not listed. Active and inactive are the calls of the source. Unless noted, the call rests on the fitted dose curve; in most records, active means well fitted curve in the direction sought with a large enough effect in the repeat runs; inconclusive means weak or mixed curves; inactive means no such curve, though single readings can be large; an effect the other way counts as inactive or inconclusive.

Chains of the proteins cited; added tags and fusions are not shown.
UniProt Q14994, whole entry: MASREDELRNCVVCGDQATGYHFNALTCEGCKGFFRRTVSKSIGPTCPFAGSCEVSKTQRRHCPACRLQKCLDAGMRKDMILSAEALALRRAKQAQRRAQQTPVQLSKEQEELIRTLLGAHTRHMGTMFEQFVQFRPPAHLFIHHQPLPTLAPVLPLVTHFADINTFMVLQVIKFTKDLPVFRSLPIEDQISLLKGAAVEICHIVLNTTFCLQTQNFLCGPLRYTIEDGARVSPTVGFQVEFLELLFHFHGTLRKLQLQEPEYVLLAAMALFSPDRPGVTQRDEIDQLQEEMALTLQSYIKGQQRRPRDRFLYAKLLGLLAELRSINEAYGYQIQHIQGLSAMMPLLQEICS
UniProt O75469, whole entry: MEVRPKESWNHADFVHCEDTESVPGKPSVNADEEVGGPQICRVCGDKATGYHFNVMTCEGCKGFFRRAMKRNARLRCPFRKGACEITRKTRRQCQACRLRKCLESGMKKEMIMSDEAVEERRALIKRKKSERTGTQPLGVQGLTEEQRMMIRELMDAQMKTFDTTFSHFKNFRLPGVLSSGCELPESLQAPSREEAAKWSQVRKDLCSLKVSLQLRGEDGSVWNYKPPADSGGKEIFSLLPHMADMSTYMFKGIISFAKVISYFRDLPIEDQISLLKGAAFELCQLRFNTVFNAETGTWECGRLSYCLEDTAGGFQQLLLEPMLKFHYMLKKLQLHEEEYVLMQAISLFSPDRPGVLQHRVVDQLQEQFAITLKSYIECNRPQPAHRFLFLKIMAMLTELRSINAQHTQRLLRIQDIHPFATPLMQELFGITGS

Experiments:
[1] = qHTS assay to identify small molecule antagonists of the retinoid-related orphan receptor gamma (ROR-gamma) signaling pathway - cell viability counter screen (AID 1159520); settings: Tet-on RORgamma CHO cells viability, ATP luminescence, 16 h; further: nearly all actives have a fitted effect of over 50% in size
Outline: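 Tet-on ROR gamma CHO cells were given compounds for 2 hr, then doxycycline hyclate at 1 uM final, and incubated 16 hr at 37 C. Viability was measured as ATP content by CellTiter-Glo luminescence.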

[2] = qHTS assay to identify small molecule agonists of the AP-1 signaling pathway (AID 1159526; calls by dose curve); settings: ME-180 (cervical carcinoma) AP-1-bla reporter, beta-lactamase FRET ratio, 5 h
[3] = qHTS assay to identify small molecule agonists of the RXR signaling pathway - cell viability counter screen (AID 1159529); settings: RXR-alpha-bla HEK293T viability, CellTiter-Glo, 16 h; further: nearly all actives have a fitted effect of over 50% in size
Outline: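 Steps: seed RXR-alpha-UAS-bla HEK 293T cells in assay medium containing 2% charcoal-stripped FBS; incubate 5 hr; add compounds in DMSO; incubate 16 hr at 37 C; after the bla read, add CellTiter-Glo and read luminescence at 30 min.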

[4] = qHTS assay to identify small molecule antagonists of the retinoic acid receptor (RAR) signaling pathway (AID 1159552; further: nearly all actives have a fitted effect of over 50% in size); settings: C3RL4 RARE luciferase reporter, retinol-stimulated, 6 h
Outline: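 Retinol at 1 uM final stimulated RARE-luciferase expression in C3RL4 cells exposed to test compounds for 6 hr at 37 C. Reduced luminescence, read 30 min after detection reagent, indicated pathway antagonism.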

[5] = qHTS assay to identify small molecule antagonists of the estrogen related receptor (ERR) signaling pathway from Tox21 library - cell viability counter screen (AID 1224834); settings: ERR reporter cells viability, CellTiter-Fluor, 17.5 h; further: nearly all actives have a fitted effect of over 30% in size
Outline: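 Compounds in DMSO were pinned onto ERR cells that had been incubated for 6 h, and the plates were held at 37 C for 17.5 h. CellTiter-Fluor reagent was then added and fluorescence was measured after 30 min.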

[6] = qHTS assay to identify small molecule agonists of the constitutive androstane receptor (CAR) signaling pathway - cell viability counter screen (AID 1224836); settings: HepG2-CYP2B6-hCAR viability, CellTiter-Fluor, 23 h; PK11195 added to every well; further: nearly all actives have a fitted effect of over 45% in size
Outline: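 Cells were seeded and incubated 4 hrs. Compounds were added across 15 concentrations together with PK11195 at 0.75 uM final. Plates were incubated 23 hrs at 37 C. CellTiter-Fluor was added and fluorescence measured.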

[7] = qHTS assay to identify small molecule antagonists of the constitutive androstane receptor (CAR) signaling pathway - cell viability counter screen (AID 1224837); settings: HepG2-CYP2B6-hCAR viability, CellTiter-Fluor, 23 h; co-treated with 50 nM CITCO; further: nearly all actives have a fitted effect of over 45% in size
Outline: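 Cells are seeded, rested 4 hr at 37 C/5% CO2, dosed with compound (15-point series) and 50 nM CITCO, incubated a further 23 hr, and then CellTiter-Fluor reagent is added before fluorescence is read. The line is HepG2 with stable hCAR and CYP2B6-2.2kb.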

[8] = target: Nuclear receptor subfamily 1 group I member 3 (Homo sapiens) (UniProt Q14994); assay: qHTS assay to identify small molecule antagonists of the constitutive androstane receptor (CAR) signaling pathway (AID 1224838); settings: HepG2-CYP2B6-hCAR luciferase, CITCO-stimulated, 24 h;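 further: HepG2 cells stably expressing hCAR with CYP2B6 luciferase reporter stimulated by CITCO; nearly all actives have a fitted effect of over 40% in size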
[9] = qHTS assay to identify small molecule agonists of the estrogen related receptor signaling pathway with the pleiotropic PPARgamma coactivator (PGC) from Tox21 10K library (AID 1224842); settings: PGC/ERR reporter cell line, luciferase ONE-Glo, 18 h; further: nearly all actives have a fitted effect of over 15% in size
Outline: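 PGC/ERR reporter cell line, 2,000 cells per well, incubated 6 h at 37 C before 23 nL compound in DMSO was added. After 18 h at 37 C, One-Glo luminescence read following 30 min at room temperature.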

[10] = qHTS assay to identify small molecule antagonists of the estrogen related receptor (ERR) signaling pathway from Tox21 library (AID 1224848); settings: ERR reporter cell line, luciferase antagonist mode, 18 h; further: nearly all actives have a fitted effect of over 50% in size
Outline: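 Compounds dissolved in DMSO are pin-transferred onto ERR reporter cells (2,000 per well) that have settled for 6 h at 37 C. Plates then incubate 18 h at 37 C before ONE-Glo luciferase reagent and a luminescence read 30 min later.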

[11] = qHTS assay to identify small molecule agonists of the sonic hedgehog signaling (Shh) pathway - cell viability counter screen (AID 1259366); further: nearly all actives have a fitted effect of over 50% in size
Outline: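 Cells are plated at 2,000 per well and left 4hr at 37C, 5% CO2 before compound addition. After 23hr of treatment, CellTiter-Fluor reagent is added for 1hr at 37C and fluorescence is measured.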

[12] = qHTS assay to identify small molecule antagonists of the sonic hedgehog signaling (Shh) pathway - cell viability counter screen (AID 1259367); settings: NIH/3T3 Gli1-Luc viability, CellTiter-Fluor, 24 h; further: nearly all actives have a fitted effect of over 55% in size
Outline: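 Fluorescence read-out (CellTiter-Fluor, 1 hr at 37C) taken after 23 hr compound treatment of 3T3 Gli1-Luc cells stimulated with conditioned medium. Cells were seeded at 2,000 per well and pre-incubated 4 hr.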

[13] = qHTS assay to identify small molecule agonists of the androgen receptor (AR) signaling pathway in the presence of an antagonist - cell viability counter screen (AID 1259379); settings: MDA-kb2 viability, CellTiter-Fluor, 16 h; further: nearly all actives have a fitted effect of over 25% in size
Outline: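 Nilutamide-containing (3.0uM final) MDA-kb2 cultures, 3,000 cells/well, were treated with compounds across 15 concentrations. After 16 hr at 37C with no CO2, cell viability was determined by CellTiter-Fluor fluorescence in the luciferase assay wells.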

[14] = qHTS assay to identify small molecule agonists of the TGF-beta/Smad signaling pathway - cell viability counter screen (AID 1346829); settings: SBE-bla HEK293T viability, CellTiter-Glo luminescence, 5 h; further: nearly all actives have a fitted effect of over 45% in size
Outline: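 CellTiter-Glo luminescence readout; SBE-bla HEK 293T cells, overnight plating, compound 5 hr at 37 C/5% CO2, then bla substrate 2 hr RT, then CellTiter-Glo 30 min RT.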

[15] = Human pregnane X receptor (PXR) small molecule agonists, qHTS cell viability counter screen (AID 1346977); settings: PXR-Luc HepG2 viability, CellTiter-Fluor, 24 h; further: nearly all actives have a fitted effect of over 50% in size
Outline: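 Cytotoxicity counter screen run in the same wells as the PXR luciferase assay, using PXR-Luc HepG2 cells in charcoal-stripped serum medium. Viability: CellTiter-Fluor fluorescence after 24hr compound treatment.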

[16] = Caspase-3/7 induction in CHO-K1 cells by small molecules, qHTS cell viability counter screen (AID 1346979); settings: CellTiter-Fluor fluorescence, 17 h; further: nearly all actives have a fitted effect of over 35% in size
Outline: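 Cytotoxicity counter screen run in parallel with the caspase-3/7 assay: CHO-K1 cells, 16hr compound treatment at 37C, then CellTiter-Fluor for 1hr before fluorescence reading.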

[17] = Caspase-3/7 induction in CHO-K1 cells by small molecules, qHTS assay (AID 1346980); settings: CHO-K1 caspase-3/7 induction, Caspase-Glo luminescence, 17 h; further: nearly all actives have a fitted effect of over 15% in size
Outline: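 Wild-type CHO-K1 cells exposed to compounds for 17hr at 37 C, 5% CO2. Caspase-3/7 activity then measured by Caspase-Glo 3/7 luminescence after 30min at room temperature.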

[18] = Caspase-3/7 induction in HepG2 cells by small molecules, qHTS cell viability counter screen (AID 1346981); settings: CellTiter-Fluor fluorescence, 17 h; further: nearly all actives have a fitted effect of over 30% in size
Outline: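 In this quantitative HTS counter screen, compounds delivered in DMSO were left on unmodified HepG2 cells for 16 hr at 37 C. Viability was then determined fluorometrically with CellTiter-Fluor, in parallel with caspase-3/7 induction in the same wells.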

[19] = target: Nuclear receptor subfamily 1 group I member 2 (Homo sapiens) (UniProt O75469); assay: Human pregnane X receptor (PXR) small molecule agonists, qHTS assay (AID 1346982); settings: PXR-Luc HepG2, CYP3A4 luciferase reporter, 24 h; further: nearly all actives have a fitted effect of over 35% in size
Outline: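 Reporter HepG2 cells expressing PXR-Luc are cultured in charcoal-stripped FBS (5%), treated with compounds for 24 hr at 37 C, and assayed by ONE-Glo luminescence after 30 min at room temperature.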

Measured: Potency
Potency means the concentration at half of the fitted maximal effect.

CN(CCCl)CCCl
active: [1] 21.6 µM and 13.3 µM | [2] 23.9 µM | [3] 43.6 µM | [4] 48.5 µM | [5] 43.2 µM | [6] 54.4 µM | [7] 54.4 µM | [8] 54.4 µM | [9] 11.9 µM | [10] 43.2 µM | [11] 27.3 µM | [12] 30.6 µM | [13] 27.3 µM and 26.6 µM | [14] 54.8 µM | [15] 24.3 µM | [16] 27.3 µM and 29.8 µM | [17] 68.5 µM | [18] 21.6 µM and 29.8 µM | [19] 8.62 µM
